{"source": "the supplement of paper PMC7858590", "note": "This list holds what a sample rich in lowest values left over."}
{"test_system": "human monocyte-derived macrophages (M0)", "assay": "cell shape (eccentricity) Z-score vs DMSO control; higher = more elongated, M2-like morphology", "conditions": "20 µM; 24 h; macrophage state: M0 (M-CSF)", "experimental": "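Primary human monocyte-derived macrophages (M-CSF differentiated, pooled from 4 donors, 5000 cells/well in 384-well plates) were treated with each compound at 20 uM for 24 h, then fixed and stained with phalloidin/DAPI and imaged on an Opera Phenix (6 fields, about 1000 cells/well). Cell eccentricity was measured with CellProfiler, and a Z-score (t-test) was computed against 4 DMSO control wells in the same row. Negative values mean round (M1-like) cells and positive values mean elongated (M2-like) cells; the paper's hit cutoffs are Z <= -4 (M1) and Z >= 6 (M2). Scale: negative = round, M1-like.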"}
{"smiles": "NCc1ccc(OCCCc2sc(-c3ccc4c(c3)/C(=N/Nc3nc5ccccc5s3)CCC4)nc2C(=O)O)cc1", "cell shape (Z-score)": 3.19}
